Screening data: PubChem, several laboratories
Only some compounds are listed: those with a hit (about 0.94% of all), similar ones and a draw of the others.
PKA-R2B activ: activators of human PKA-R2B complex; PKA-R2B holoenzyme dissociation, Cy5-IP20 fluorescence polarization; R2B truncated from residue 108, S112A mutant; 0% DMSO only, 100% 113 µM cGMP; activation, % at 11.4 µM; 0.079% of 340,000 active; AID 504700;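 active means activation above a cutoff set at the mean over all compounds plus 3 SD, cut at about 18% in these data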;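 further: higher means more holoenzyme dissociation and a rise in polarization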
p-CIP stab down: p/CIP protein destabilization. Q05BA5. F442A p/CIP-EGFP cells, EGFP fluorescence, 16 h. decrease of EGFP signal, % at 10 µM. 0.01% of 290,000 active. AID 1984;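 active means EGFP signal decrease of at least 30% at 10 µM or well 3 SD below plate mean, unless failing retest; inactive means the rest, including hits failing retest or dose response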
Yeast UUG start-1: modulators of yeast start codon fidelity, primary screen, whole organism, S. cerevisiae, single point, plate reader; S. cerevisiae UUG-firefly luciferase reporter, luminescence/redox ratio; activity score, % at 18.7 µM; 0.13% of 350,000 active; AID 602363, 2012;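 active = replicate mean at a twofold rise or more, about +100% in these data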;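 also: firefly luciferase made from a UUG start codon reports start codon fidelity; reporter light over untreated wells divided by growth signal over untreated wells; some hits fall short of that in this replicate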
ABCB6 inh MLPCN: blocks the human ABCB6 transporter | Q9NP58 | AID 602162 | 0.19% of 360,000 active | K562-ABCB6 porphyrin accumulation, flow cytometry, 1 h; hits give low values | fluorescence ratio to DMSO, % at 10 µM;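 active means fluorescence ratio to DMSO below 75%, the collection mean minus 3 SD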;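 further: signal is porphyrin accumulated inside mitochondria; 100% equals median channel fluorescence of DMSO control wells; lower ratio means ABCB6 inhibition with less porphyrin fluorescence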
PKA-R1A act: activators of PKA-R1A complex | PKA-R1A dissociation, Cy5-IP20 fluorescence polarization; scaled: DMSO 0%, 113 µM cGMP 100% | P00514+P68181 | AID 504707 | 0.083% of 340,000 active | activation, % at 11.4 µM;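 active means percent activation above the mean of all tested compounds plus 3 SD, cut at about 19% in these data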;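 further: higher means more PKAc released from R1A so a rise in polarization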
Granule exo inh: lytic granule exocytosis inhibition | TALL-104 LAMP-1 surface exposure, flow cytometry; cells stimulated with thapsigargin and PMA | inhibition, % at 10 µM | 0.66% of 360,000 active;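 active means inhibition above about 55%, limit read from the data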
Yeast UUG start-2: alters UUG start codon use in yeast. activation, % at 38 µM. 540 tested, under 10 active. shares compounds with Yeast UUG start-1. S. cerevisiae UUG-start firefly luciferase, luminescence, 4 h; 100% means double the DMSO signal;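 active means signal increase whose fitted curve reaches an absolute level of 40 at a concentration under 10 µM; inactive means activity opposite to the expected increase, or the rest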
Starred values were filed as active, the others as inactive; i = inactive; · = no result given.

Structure	Yeast UUG start-2	Granule exo inh	PKA-R1A act	ABCB6 inh MLPCN	Yeast UUG start-1	p-CIP stab down	PKA-R2B activ
CC(C)(C#CC(O)(c1ccccc1)c1ccccc1)N1CCCC1	11	3	-5	88	·	2	-5
C[C@H]1CN([C@@H](C)CO)S(=O)(=O)c2ccc(C#CC3CCCC3)cc2O[C@H]1CN(C)Cc1cccnc1	i	·	·	·	142*	·	·
CC(C)C#Cc1ccc2c(c1)O[C@@H](CN(C)Cc1cccnc1)[C@H](C)CN([C@@H](C)CO)S2(=O)=O	i	·	·	·	72*	·	·
CC(C)C#Cc1ccc2c(c1)O[C@H](CN(C)Cc1cccnc1)[C@H](C)CN([C@@H](C)CO)S2(=O)=O	·	·	·	·	-6	·	·
C[C@H]1CN([C@@H](C)CO)C(=O)c2cc(NS(=O)(=O)c3ccccc3)ccc2O[C@H]1CN(C)CC1CC1	·	·	·	·	-5	·	·
CCCCn1c(N)c(N(CCOC)C(=O)C2CC(=O)N(c3ccc(CC)cc3)C2)c(=O)[nH]c1=O (stereo not drawn)	-6	0	-3	99	129*	·	-5
CCCCn1c(N)c(N(CCOC)C(=O)C2CC(=O)N(Cc3ccc(C)cc3)C2)c(=O)[nH]c1=O (stereo not drawn)	·	4	-12	100	-6	·	-3
O=C(c1cn(CC(=O)N2CCCCC2)c2ccccc12)C1CC1	3	-3	-7	99	-15	9	-13
COC(=O)c1cn(CC(=O)NC2CCCCC2)c2ccccc12	·	-2	2	101	·	0	-2
CCOC(=O)C1CCN(C(=O)C(=O)c2cn(CC(=O)N3CCCCCC3)c3ccccc23)CC1	·	21	-2	123	6	-5	-5
O=C(Cn1cc(C(=O)C2CC2)c2ccccc21)NCC1CCCO1 (stereo not drawn)	6	0	4	96	9	-13	-3
O=C(Cn1cc(C(=O)C2CC2)c2ccccc21)NC1CCCC1	8	-1	-2	92	6	5	-1

Look-ups from above:
Reading of O=C(Cn1cc(C(=O)C2CC2)c2ccccc21)NCC1CCCO1 (stereo not drawn) under Yeast UUG start-2: 6
Reading of CC(C)C#Cc1ccc2c(c1)O[C@@H](CN(C)Cc1cccnc1)[C@H](C)CN([C@@H](C)CO)S2(=O)=O under Yeast UUG start-1: 72*

Reformatted as labelled records: 2 of the compounds above.
> CCCCn1c(N)c(N(CCOC)C(=O)C2CC(=O)N(Cc3ccc(C)cc3)C2)c(=O)[nH]c1=O (stereo not drawn)
  Yeast UUG start-2: ·
  Granule exo inh: 4
  PKA-R1A act: -12
  ABCB6 inh MLPCN: 100
  Yeast UUG start-1: -6
  p-CIP stab down: ·
  PKA-R2B activ: -3
> O=C(Cn1cc(C(=O)C2CC2)c2ccccc21)NC1CCCC1
  Yeast UUG start-2: 8
  Granule exo inh: -1
  PKA-R1A act: -2
  ABCB6 inh MLPCN: 92
  Yeast UUG start-1: 6
  p-CIP stab down: 5
  PKA-R2B activ: -1

Remaining list, next part:
Structure	Yeast UUG start-2	Granule exo inh	PKA-R1A act	ABCB6 inh MLPCN	Yeast UUG start-1	p-CIP stab down	PKA-R2B activ
O=C(O)Cn1cc(C(=O)C2CC2)c2ccccc21	·	1	4	96	-5	-3	-1
CCOC(=O)C1CCN(C(=O)Cn2cc(C(=O)C3CC3)c3ccccc32)CC1	11	1	4	100	-9	-10	-2
Cc1noc(C)c1NC(=O)N(C)C[C@H]1Oc2ccc(NC(=O)Nc3ccc(C(F)(F)F)cc3)cc2C(=O)N([C@@H](C)CO)C[C@@H]1C	·	·	·	·	-12	·	·
COc1ccc(CN2CCN(C(=O)c3cccc4ccccc34)CC2)c(OC)c1OC	-1	2	-4	94	146*	-2	4
CC(C)CC#Cc1cnc2c(c1)C(=O)N([C@H](C)CO)C[C@H](C)[C@@H](CN(C)C(=O)CC1CC1)O2	i	·	·	·	147*	·	·
CCCC#Cc1cnc2c(c1)C(=O)N([C@H](C)CO)C[C@H](C)[C@@H](CN(C)C(=O)CCN1CCCCC1)O2	4	1	-10	102	166*	·	-1
CC(C)C[C@@H](CNCC(=O)[C@H](Cc1ccccc1)NC(=O)c1[nH]cnc1C(=O)N[C@@H](C)CN)NC(=O)c1nc[nH]c1C(=O)N[C@@H](C)C(=O)O	3	-1	-11	96	130*	·	-3
CC(C)C[C@@H](CNCC(=O)[C@H](C)NC(=O)c1[nH]cnc1C(=O)N[C@@H](C)CN)NC(=O)c1nc[nH]c1C(=O)N[C@@H](C)C(=O)O	1	-1	1	102	147*	·	2
CCCc1cn(CC[C@H]2CC[C@H](NC(=O)CCN3CCCCC3)[C@@H](CO)O2)nn1	·	·	·	·	-10	·	·
Cc1cccc(N2CCN(C(=O)Cn3nc(Cc4ccncc4)c4ccccc4c3=O)CC2)c1C	5	-8	-2	98	-13	·	0
CCOc1ccc(CCNS(=O)(=O)c2c(C)cc(C)cc2C)cc1OCC	i	·	·	·	·	·	·
COCC(=O)N1[C@H](CO)[C@@H](c2ccc(C3=CCCCC3)cc2)[C@@H]1C#N	·	·	·	·	6	·	·
O=C(NCC[C@H]1CC[C@H](NS(=O)(=O)c2cccc(F)c2)[C@H](CO)O1)c1cnccn1	i	·	·	·	113*	·	·
O=C(Nc1ccc(Cl)cc1)N[C@H]1CC[C@H](CCNC(=O)c2ccccc2F)O[C@H]1CO	i	·	·	·	91*	·	·
O=C(Nc1ccc(Cl)cc1)N[C@H]1CC[C@@H](CCNC(=O)c2ccccc2F)O[C@H]1CO	·	·	·	·	3	·	·
O=C(NCC[C@H]1CC[C@@H](NS(=O)(=O)c2cccc(F)c2)[C@@H](CO)O1)c1cnccn1	·	·	·	·	90	·	·
O=C(NCC[C@@H]1CC[C@H](NC(=O)c2cnccn2)[C@@H](CO)O1)Nc1ccc(F)cc1	i	·	·	·	159*	·	·
Cc1noc(C)c1S(=O)(=O)Nc1cccc2c1O[C@@H](CN(C)Cc1ccc3c(c1)OCO3)[C@@H](C)CN([C@@H](C)CO)C2=O	·	·	·	·	20	·	·
C[C@@H]1CN([C@@H](C)CO)C(=O)c2cc(NC(=O)Nc3ccc4c(c3)OCO4)ccc2O[C@H]1CN(C)Cc1ccc(-c2ccccc2)cc1	·	·	·	·	-9	·	·
O=C(NC1CCOC1)c1ccc(OC2CCN(CCc3ccccc3)CC2)cc1 (stereo not drawn)	-2	-2	5	98	503*	0	-5
CN(C(=O)c1ccc(OC2CCN(CCc3ccccc3)CC2)cc1)C1CCOC1 (stereo not drawn)	·	2	-8	89	10	-12	-4
C[C@H](CO)N1C[C@H](C)[C@@H](CN(C)Cc2ccc(C(F)(F)F)cc2)OCCCC[C@H](C)Oc2ccc(NS(=O)(=O)c3ccc(Cl)cc3)cc2C1=O	·	·	·	·	2	·	·
C[C@H](CO)N1C[C@H](C)[C@H](CN(C)C(=O)C2CCC2)Oc2ncc(C#Cc3ccccc3F)cc2C1=O	·	·	·	·	1	·	·
CC(C)C#Cc1ccc2c(c1)O[C@@H](CN(C)C(=O)CC1CC1)[C@H](C)CN([C@H](C)CO)S2(=O)=O	i	·	·	·	70*	·	·
C/C=C/c1ccc2c(c1)O[C@@H](CN(C)CCC)[C@@H](C)CN([C@@H](C)CO)S2(=O)=O	·	·	·	·	-16	·	·
CCCC#Cc1ccc2c(c1)O[C@@H](CN(C)C)[C@@H](C)CN([C@H](C)CO)S2(=O)=O	i	·	·	·	128*	·	·
C/C=C/c1ccc2c(c1)O[C@H](CN(C)CCC)[C@H](C)CN([C@H](C)CO)S2(=O)=O	i	·	·	·	75*	·	·
Cc1ccc(-c2ccc3c(c2)O[C@H](CN(C)C(=O)Nc2ccccc2)[C@H](C)CN([C@H](C)CO)S3(=O)=O)cc1	i	·	·	·	122*	·	·
Cc1ccccc1S(=O)(=O)NCC[C@@H]1CC[C@@H](NC(=O)C2CCCCC2)[C@@H](CO)O1	·	·	·	·	8	·	·
